Measured values as given in patent US5096884A, “Glidobactin PF-1 peptide antibiotics” (Bristol-Myers Squibb Company, priority 1990, dated 1992).

System: B16 Melanoma (ip)
Details: B16, 0.063 mg/kg/day, QD1→9, ≥125% significant
Protocol: In vivo antitumor activity of glidobactin PF-1 was determined in experimental mouse tumor systems. Female CDF1 and male BDF1 mice were intraperitoneally inoculated with 0.4 mL of diluted ascitic fluid containing 10^6 lymphocytic leukemia P388 cells and 0.5 mL of 10% melanotic melanoma B16 brei, respectively. Test compounds were intraperitoneally administered daily for 9 days starting from 1 day after the tumor implantation.

Structure (SMILES): CO[C@@]12[C@H](COC(N)=O)C3=C(C(=O)C(C)=C(N)C3=O)N1C[C@@H]1N[C@@H]12 [Mitomycin C]
- T/C % of MST: 100%
